Results on 30 molecules are retold here after patent publication US20250195530A1, “POLQ INHIBITORS” (ASTRAZENECA AB, priority 2022, published 2025).

Sequences of proteins named here, by UniProt entry; tags and fusion partners are left off. Residues count along the entry.
UniProt O75417, 1780-2590: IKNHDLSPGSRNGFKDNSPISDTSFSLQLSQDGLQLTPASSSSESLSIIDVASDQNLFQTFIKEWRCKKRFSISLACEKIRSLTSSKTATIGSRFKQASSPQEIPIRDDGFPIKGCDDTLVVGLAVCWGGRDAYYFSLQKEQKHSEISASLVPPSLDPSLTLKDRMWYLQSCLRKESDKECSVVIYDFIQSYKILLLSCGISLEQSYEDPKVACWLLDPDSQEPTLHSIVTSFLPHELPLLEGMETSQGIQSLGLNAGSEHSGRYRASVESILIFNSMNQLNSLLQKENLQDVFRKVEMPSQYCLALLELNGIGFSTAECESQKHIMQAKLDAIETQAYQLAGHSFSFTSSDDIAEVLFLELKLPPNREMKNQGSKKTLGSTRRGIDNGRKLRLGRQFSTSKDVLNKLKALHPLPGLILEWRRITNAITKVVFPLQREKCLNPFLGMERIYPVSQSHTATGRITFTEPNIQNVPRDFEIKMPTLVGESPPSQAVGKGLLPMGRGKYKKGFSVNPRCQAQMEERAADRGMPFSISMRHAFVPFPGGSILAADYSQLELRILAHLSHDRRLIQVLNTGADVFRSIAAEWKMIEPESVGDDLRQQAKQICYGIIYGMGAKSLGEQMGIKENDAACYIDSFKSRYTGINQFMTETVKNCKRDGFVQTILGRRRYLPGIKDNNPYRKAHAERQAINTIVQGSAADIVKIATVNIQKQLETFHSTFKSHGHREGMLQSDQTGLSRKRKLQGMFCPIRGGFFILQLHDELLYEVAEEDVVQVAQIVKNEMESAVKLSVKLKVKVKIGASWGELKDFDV

In this experiment the target is isolated polymerase domain (I1780-V2590) of DNA polymerase theta (Polθ) (Homo sapiens (Human), UniProt O75417). As to the kind of experiment: biochemical.

pIC50: −log10 of the molar value.

The term pIC50 denotes the negative decadic logarithm of the IC50, by convention in mol/L. High values mean a low IC50, low ones a high IC50.

The molecule `Cc1ccnc(Cn2c(-c3ccc(OCCCS(C)(=O)=O)cc3Cl)nc3c(OC4(C)CC4)ncnc32)c1` [Example T234, 8-(2-chloro-4-(3-(methylsulfonyl)propoxy)phenyl)-6-(1-methylcyclopropoxy)-9-((4-methylpyridin-2-yl)methyl)-9H-purine] showed a negative-log IC50 (pIC50) of 8.30. In the case of `Cc1ccnc(Cn2c(-c3ccc(N4CCNCC4)cc3Cl)nc3c(OC4(C)CC4)ncnc32)c1` [Example T235, 8-(2-chloro-4-(piperazin-1-yl)phenyl)-6-(1-methylcyclopropoxy)-9-((4-methylpyridin-2-yl)methyl)-9H-purine], the negative-log IC50 (pIC50) was 8.20.

Take `Cc1ccnc(Cn2c(-c3ccc(CCN(C)C)cc3Cl)nc3c(OC4(C)CC4)ncnc32)c1` [Example T236, 2-(3-chloro-4-(6-(1-methylcyclopropoxy)-9-((4-methylpyridin-2-yl)methyl)-9H-purin-8-yl)phenyl)-N,N-dimethylethan-1-amine]: the pIC50 was 8.30. The same measure for `Cc1ccnc(Cn2c(-c3cccc(OCCN(C)C)c3Cl)nc3c(OC4(C)CC4)ncnc32)c1` [Example T237, 2-(2-chloro-3-(6-(1-methylcyclopropoxy)-9-((4-methylpyridin-2-yl)methyl)-9H-purin-8-yl)phenoxy)-N,N-dimethylethan-1-amine]: 8.00; for `CNCCCOc1ccc(-c2nc3c(OC4(C)CC4)ncnc3n2Cc2cc(C)ccn2)c(Cl)c1` [Example T238, 3-(3-chloro-4-(6-(1-methylcyclopropoxy)-9-((4-methylpyridin-2-yl)methyl)-9H-purin-8-yl)phenoxy)-N-methylpropan-1-amine]: 8.60. The same measure for `Cc1cnc(Cn2c(-c3ccc(OCCN4CCCC4)cc3Cl)nc3c(OC4(C)CC4)ncnc32)s1` [Example T239, 2-((8-(2-chloro-4-(2-(pyrrolidin-1-yl)ethoxy)phenyl)-6-(1-methylcyclopropoxy)-9H-purin-9-yl)methyl)-5-methylthiazole]: 8.20; for `Cc1cnc(Cn2c(-c3ccc(OC[C@H]4CCCN4C)cc3Cl)nc3c(OC4(C)CC4)ncnc32)s1` [Example T240, (R)-2-((8-(2-chloro-4-((1-methylpyrrolidin-2-yl)methoxy)phenyl)-6-(1-methylcyclopropoxy)-9H-purin-9-yl)methyl)-5-methylthiazole]: 8.30. The same measure for `Cc1cnc(Cn2c(-c3ccc(OC4CCN(C)CC4)cc3Cl)nc3c(OC4(C)CC4)ncnc32)s1` [Example T241, 2-((8-(2-chloro-4-((1-methylpiperidin-4-yl)oxy)phenyl)-6-(1-methylcyclopropoxy)-9H-purin-9-yl)methyl)-5-methylthiazole]: 8.40; for `Cc1cnc(Cn2c(-c3ccc(OCCCN4CC(O)C4)cc3Cl)nc3c(OC4(C)CC4)ncnc32)s1` [Example T244, 1-(3-(3-chloro-4-(6-(1-methylcyclopropoxy)-9-((5-methylthiazol-2-yl)methyl)-9H-purin-8-yl)phenoxy)propyl)azetidin-3-ol]: 8.30. With `Cc1cnc(Cn2c(-c3ccc(OCCN4CC[C@@H](O)C4)cc3Cl)nc3c(OC4(C)CC4)ncnc32)s1` [Example T245, (R)-1-(2-(3-chloro-4-(6-(1-methylcyclopropoxy)-9-((5-methylthiazol-2-yl)methyl)-9H-purin-8-yl)phenoxy)ethyl)pyrrolidin-3-ol], the pIC50 is 8.20. As for `Cc1cnc(Cn2c(-c3cccc(OCCCN4CC(O)C4)c3Cl)nc3c(OC4(C)CC4)ncnc32)s1` [Example T246, 1-(3-(2-chloro-3-(6-(1-methylcyclopropoxy)-9-((5-methylthiazol-2-yl)methyl)-9H-purin-8-yl)phenoxy)propyl)azetidin-3-ol], the figure is 8.00. As for `Cc1ccnc(Cn2c(-c3ccc(NCCN(C)C)cc3Cl)nc3c(OC4(C)CC4)ncnc32)c1` [Example T247, N1-(3-chloro-4-(6-(1-methylcyclopropoxy)-9-((4-methylpyridin-2-yl)methyl)-9H-purin-8-yl)phenyl)-N2,N2-dimethylethane-1,2-diamine], the figure is 8.20; as for `Cc1csc(Cn2c(-c3ccc(OCCN4CCNCC4)cc3Cl)nc3c(OC4(C)CC4)ncnc32)n1` [Example T248, 2-((8-(2-chloro-4-(2-(piperazin-1-yl)ethoxy)phenyl)-6-(1-methylcyclopropoxy)-9H-purin-9-yl)methyl)-4-methylthiazole], 8.40.

For `Cc1ncc(Cn2c(-c3ccc(OCCN4CCNCC4)cc3Cl)nc3c(OC4(C)CC4)ncnc32)s1` [Example T249, 5-((8-(2-chloro-4-(2-(piperazin-1-yl)ethoxy)phenyl)-6-(1-methylcyclopropoxy)-9H-purin-9-yl)methyl)-2-methylthiazole], the pIC50 was 7.70. In turn, `CC1(Oc2ncnc3c2nc(-c2ccc(OCc4nc(C(=O)O)cs4)cc2Cl)n3Cc2cccc(Cl)c2)CC1` [Example T250, 2-((3-chloro-4-(9-(3-chlorobenzyl)-6-(1-methylcyclopropoxy)-9H-purin-8-yl)phenoxy)methyl)thiazole-4-carboxylic acid] had a pIC50 of 8.40. The same measure for `C/C(=C\COc1ccc(-c2nc3c(OC4(C)CC4)ncnc3n2Cc2cccc(Cl)c2)c(Cl)c1)C(=O)O` [Example T255, (E)-4-(3-chloro-4-(9-(3-chlorobenzyl)-6-(1-methylcyclopropoxy)-9H-purin-8-yl)phenoxy)-2-methylbut-2-enoic acid]: 8.50; for `C#CCNC(=O)COc1ccc(-c2nc3c(OC4(C)CC4)ncnc3n2Cc2cc(C)ccn2)c(Cl)c1` [Example T266, 2-(3-chloro-4-(6-(1-methylcyclopropoxy)-9-((4-methylpyridin-2-yl)methyl)-9H-purin-8-yl)phenoxy)-N-(prop-2-yn-1-yl)acetamide]: 8.20. The same measure for `Cc1ccnc(Cn2c(-c3ccc(C(=O)NC4CC(F)C4)cc3Cl)nc3c(OC4(C)CC4)ncnc32)c1` (stereo not drawn) [Example T280, 3-chloro-N-(3-fluorocyclobutyl)-4-(6-(1-methylcyclopropoxy)-9-((4-methylpyridin-2-yl)methyl)-9H-purin-8-yl)benzamide]: 7.80; for `Cc1ccnc(Cn2c(-c3ccc(C(=O)N4CC[C@H](F)C4)cc3Cl)nc3c(OC4(C)CC4)ncnc32)c1` [Example T281, (S)-(3-chloro-4-(6-(1-methylcyclopropoxy)-9-((4-methylpyridin-2-yl)methyl)-9H-purin-8-yl)phenyl)(3-fluoropyrrolidin-1-yl)methanone]: 7.70; for `Cc1ccnc(Cn2c(-c3ccc(C(=O)N4C[C@@H](O)[C@H](F)C4)cc3Cl)nc3c(OC4(C)CC4)ncnc32)c1` [Example T282, (3-chloro-4-(6-(1-methylcyclopropoxy)-9-((4-methylpyridin-2-yl)methyl)-9H-purin-8-yl)phenyl)((3R,4R)-3-fluoro-4-hydroxypyrrolidin-1-yl)methanone]: 7.40. The same measure for `Cc1ccnc(Cn2c(-c3ccc(OCC(=O)N4CC(F)C4)cc3Cl)nc3c(OC4(C)CC4)ncnc32)c1` [Example T283, 2-(3-chloro-4-(6-(1-methylcyclopropoxy)-9-((4-methylpyridin-2-yl)methyl)-9H-purin-8-yl)phenoxy)-1-(3-fluoroazetidin-1-yl)ethan-1-one]: 8.30; for `CC1(Oc2ncnc3c2nc(-c2ccc(OCCN4CC(O)C4)cc2Cl)n3Cc2cc(C(F)(F)F)ccn2)CC1` [Example T284, 1-(2-(3-chloro-4-(6-(1-methylcyclopropoxy)-9-((4-(trifluoromethyl)pyridin-2-yl)methyl)-9H-purin-8-yl)phenoxy)ethyl)azetidin-3-ol]: 8.50.

Consider `Cc1ccnc(Cn2c(-c3ccc(C(=O)N(C)CCC#N)cc3Cl)nc3c(OC4(C)CC4)ncnc32)c1` [Example T286, 3-chloro-N-(2-cyanoethyl)-N-methyl-4-(6-(1-methylcyclopropoxy)-9-((4-methylpyridin-2-yl)methyl)-9H-purin-8-yl)benzamide], for which the negative logarithm of the IC50 (pIC50) is 7.20. The same measure for `Cc1ccnc(Cn2c(-c3ccc(C(=O)N4CCNC(=O)C4)cc3Cl)nc3c(OC4(C)CC4)ncnc32)c1` [Example T287, 4-(3-chloro-4-(6-(1-methylcyclopropoxy)-9-((4-methylpyridin-2-yl)methyl)-9H-purin-8-yl)benzoyl)piperazin-2-one]: 7.30; for `CC(C)(C)Oc1cccc2c1nc(-c1ccc(OCCC(=O)O)cc1Cl)n2Cc1cccc(Cl)c1` [Example T288, 3-(4-(4-(tert-butoxy)-1-(3-chlorobenzyl)-1H-benzo[d]imidazol-2-yl)-3-chlorophenoxy)propanoic acid]: 7.80; for `CC1(Oc2ncnc3c2nc(-c2ccc(CCCCC(=O)O)cc2Cl)n3Cc2cccc(Cl)c2)CC1` [Example T289, 5-(3-chloro-4-(9-(3-chlorobenzyl)-6-(1-methylcyclopropoxy)-9H-purin-8-yl)phenyl)pentanoic acid]: 8.30. As for `CC1(Oc2ncnc3c2nc(-c2cccc(OCCCCC(=O)O)c2Cl)n3Cc2cccc(Cl)c2)CC1` [Example T292, 5-(2-chloro-3-(9-(3-chlorobenzyl)-6-(1-methylcyclopropoxy)-9H-purin-8-yl)phenoxy)pentanoic acid], the figure is 8.30. As for `C[C@@H](CCOc1cccc(-c2nc3c(OC4(C)CC4)ncnc3n2Cc2cccc(Cl)c2)c1Cl)C(=O)O` [Example T296, (S)-4-(2-chloro-3-(9-(3-chlorobenzyl)-6-(1-methylcyclopropoxy)-9H-purin-8-yl)phenoxy)-2-methylbutanoic acid], the figure is 8.30. The molecule `C[C@H](CCOc1cccc(-c2nc3c(OC4(C)CC4)ncnc3n2Cc2cccc(Cl)c2)c1Cl)C(=O)O` [Example T297, (R)-4-(2-chloro-3-(9-(3-chlorobenzyl)-6-(1-methylcyclopropoxy)-9H-purin-8-yl)phenoxy)-2-methylbutanoic acid] showed a negative logarithm of the IC50 (pIC50) of 8.20. As for `CC1(Oc2ncnc3c2nc(-c2cccc(OCC(C)(C)C(=O)O)c2Cl)n3Cc2cccc(Cl)c2)CC1` [Example T298, 3-(2-chloro-3-(9-(3-chlorobenzyl)-6-(1-methylcyclopropoxy)-9H-purin-8-yl)phenoxy)-2,2-dimethylpropanoic acid], the figure is 8.50.
